The values below are quoted from earlier work in patent US4749790A, “Process for preparing H2 receptor antagonist ascorbate compounds” (priority 1985, dated 1988).

The subject of one series is rats. The conditions noted are these: cited from earlier work.
A further series has as its system male and female rats. The following applies: 0.5 mM solution, two years; cited from earlier work.

The term LD50 denotes the dose expected to kill half of the subjects tested. Regarding nitrosocimetidine, in the series with rats, the LD50 is 1800 to 1900 mg/kg. Consider `CN(N=O)C(=N)N[N+](=O)[O-]`, for which the LD50 in the series with rats is 80 to 100 mg/kg. Also, the “rats that developed adenomas and adenocarcinomas (glandular stomach)” value in the series with male and female rats is at least 45%.
